Test results as given in patent publication US20250163052A1, “cGAS INHIBITORS AND USES THEREOF” (Cornell University, priority 2022, published 2025).

Assay: Metabolic stability in human liver microsomes

C[C@]12CC[C@H]3[C@@H](CCC4=CC(=O)CC[C@@]43C)[C@@H]1CC[C@@H]2O [Testosterone, reference compound]
CLint(mic): 109.1 µL/min/mg
